A selection: hits, their analogues and other compounds. The true share with any hit is near 1.4%.
Rango-impB inh = Rango-importin beta binding inhibition; Rango CFP/YFP FRET sensor + importin beta, 45 min; 340,000 compounds, 0.031% hits; Potency, µM (titrated, usually from 92.2 µM), inactives show at the highest dose inhibition of complex formation; Q14974;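 note: potency is the fitted concentration of half-maximal effect; 0% = DMSO wells and 100% = buffer wells lacking importin beta; nearly all actives have a fitted effect of over 15% in size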
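FRET biosensor Rango (snurportin 1 IBB between N-terminal EYFP and C-terminal Cerulean), 50 nM in PBS/1 mM DTT/0.02% Tween-20/0.1% BSA, preincubated 5 min RT with compound; 0.125 microM importin beta added, 45 min RT, CFP/YFP FRET ratio read.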
hERG WT inh = inhibitors of human wildtype KCNH2 potassium channel; Q12809; U2OS, BacMam KCNH2, thallium flux FluxOr; hits give low values; activity change, % at 1.84 µM; 340,000 compounds, 0.37% hits;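 active = maximum activity change below -70%; inconclusive = maximum activity change between -70% and -50%; inactive = maximum activity change above -50%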; note: % is set by controls: 0 for no effect and ±100 for the full control effect
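U2OS cells were transduced with wild-type KCNH2 virus (2.03 x 10^8 / mL) for 4 h at room temperature, then cultured overnight at 37 C. Thallium flux was read with FluxOr dye. Rate constants were normalized to DMSO controls.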
CCT chaperon mod = cytosolic chaperonin activity modulation. purified chaperonin ATPase assay, HTRF ADP detection, 30 min. activity change, % (no concentration beside the values), hits read low. 360,000 compounds, 0.3% hits; in the data active = activity change below about -30%; note: % is set by controls: 0 for no effect and ±100 for the full control effect
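TRiC (40 or 20 nM final, by batch activity) in 30 mM Tris pH 7.4, 100 mM KCl, 5 mM MgCl2, 1 mM DTT was treated with compound at 76 uM single dose, then 10 uM ATP, 30 min at 37 °C. ADP was read by HTRF Transcreener.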
Mm-Cpn inhibitor = inhibitors of Methanococcus maripaludis chaperonin TRiC (MmCpn); purified Mm-Cpn ATPase, ADP Transcreener TR-FRET; Potency, µM (highest dose often 76.9 µM), for the others: top-dose activity, negative = inhibition, usual class: inhibitors; 330,000 compounds, 0.031% hits; active = well fitted inhibition curve with a large enough effect; inconclusive = small, poorly fitted or top-dose-only effect; note: potency is the fitted concentration of half-maximal effect; % is set by controls: 0 for no effect and ±100 for the full control effect; nearly all actives have a fitted effect of over 80% in size
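ATP (10 uM final) was added to archaeal chaperonin (25 nM final) after 10 min exposure to test compound at 37°C; after 30 min further incubation, ADP was detected by competitive TR-FRET.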
Rango dissoc inh = prevents RanGTP from dissociating the Rango-importin beta complex; O95149+P62826; Biochemical FRET Rango-importin beta, RanGTP-induced dissociation; Potency, µM (titrated, usually from 46.1 µM), for inactives: top-dose activity change, negative = inhibition; 340,000 compounds, 0.071% hits; note: potency is the fitted concentration of half-maximal effect; % of control where 0% means no effect; nearly all actives have a fitted effect of over 45% in size
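Compounds preincubate 5 min with complex of recombinant Rango and importin beta in PBS with 1 mM DTT. Ran (0.6 uM) loaded with 2 mM GTP plus 0.2 uM RCC1 starts dissociation; FRET is recorded 45 min later.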
KCNH2 3.1 inh = inhibitors of human KCNH2 3.1 potassium channel isoform | 340,000 compounds, 0.95% hits | U2OS KCNH2 3.1, thallium flux FluxOr; hits give low values | activity change, % (tested at about 1.8 µM);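 active = maximum activity change below -70%; inconclusive = maximum activity change from -70% to -50%; inactive = maximum activity change above -50%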;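 note: thallium influx rate constant from kinetic fluorescence after stimulation buffer; % is set by controls: 0 for no effect and ±100 for the full control effect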
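Thallium flux read-out: FluxOr dye with Red40 quencher in HBSS/HEPES, 45 min at RT. Rate constants from kinetic reads were normalized to positive and negative DMSO controls. Cells: U2OS virally expressing the 3.1 isoform.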
An asterisk follows results filed as active; ? = inconclusive; nt = not tested or not shown; ! = not active in a repeat. Unless noted, calls come from the whole dose curve.

#1 COc1ccc(N2CCN(CCCNC(=O)C3CCC(CNc4nc(=S)[nH]c5ccccc45)CC3)CC2)cc1 (centres undefined)
#2 COc1ccccc1/C=C1/C(=O)N(c2ccc([N+](=O)[O-])cc2)N=C1C
#3 CCC(C(=O)NCc1cccs1)n1nc(C)n2c(cc3occc32)c1=O (centres undefined)
#4 Cc1ccc(-n2ncc3c(=O)n(CC(=O)NCc4ccco4)cnc32)cc1C
#5 COC(=O)c1ccccc1NC(=O)Cn1cnc2c(cnn2-c2ccc(C)c(C)c2)c1=O
#6 Cc1ccc(-n2ncc3c(=O)n(CC(=O)Nc4cccc(Cl)c4)cnc32)cc1C
Screen / compound no.,1,2,3,4,5,6
hERG WT inh,7.1,-5.5,5.0,0.2,-0.8,5.9
CCT chaperon mod,0.9,-11.9,-0.1,-3.5,-0.1,1.7
KCNH2 3.1 inh,-18.4,-79.7*,5.2,-85.1*,2.1,-82.9*
Rango-impB inh,4.2%,0.0%,7.2%,0.0%,0.3%,2.2%
Mm-Cpn inhibitor,-4.2%,1.0%,-1.3%,-6.8%,nt,-1.0%
Rango dissoc inh,-11.3%,-21.1%,-1.9%,26.1%,0.3%,5.8%

#7 O=C(c1ccc(F)cc1F)N1CCCc2ccccc21
#8 COc1ccc(C(C)=O)cc1COC(=O)C(CO)NS(=O)(=O)c1ccc(Br)cc1 (centres undefined)
#9 COc1ccc(C(C)=O)cc1COC(=O)CCNS(=O)(=O)c1ccc(C(C)=O)cc1
#10 CCOC(=O)c1ccc(N2C(=O)C3CC=CCC3C2=O)cc1 (centres undefined)
#11 CCOC(=O)c1cccc(Nc2ncnc3ccc(C)cc23)c1
#12 Cc1c(NC(=O)c2cc3nc(-c4ccc(Cl)cc4)cc(C(F)(F)F)n3n2)c(=O)n(-c2ccccc2)n1C
Screen / compound no.,7,8,9,10,11,12
hERG WT inh,-0.3,9.3,2.9,-2.4,12.7,10.8
CCT chaperon mod,-3.5,1.8,2.3,-46.0*,0.3,-0.7
KCNH2 3.1 inh,3.7,-79.1*,1.3,6.5,-84.7*,-4.6
Rango-impB inh,4.4%,1.6%,2.6%,?,5.5%,-0.1%
Mm-Cpn inhibitor,1.7%,0.7%,1.0%,-3.1%,-0.5%,-1.4%
Rango dissoc inh,0.5%,-6.1%,12.2%,10.0%,1.7%,-12.9%

#13 O=C(CCCCCn1c(=S)[nH]c2ccc(N3CCOCC3)cc2c1=O)NCc1ccccc1
#14 O=C(CCCCCn1c(=S)[nH]c2ccc(N3CCOCC3)cc2c1=O)NCc1cccc(Cl)c1
#15 O=C(CCCCCn1c(=S)[nH]c2cc3c(cc2c1=O)OCO3)NCCc1ccccc1
#16 Cc1ccc(S(=O)(=O)N(C)Cc2cc3cc(C)ccc3[nH]c2=O)cc1
#17 COc1ccc(C(=O)Oc2cc(C(=S)N3CCOCC3)ccc2OC)cc1
#18 CCOC(=O)N1CCC(=NNS(=O)(=O)c2cccc([N+](=O)[O-])c2)CC1
Screen / compound no.,13,14,15,16,17,18
hERG WT inh,-2.6,6.9,-13.3,-3.3,-140.4*,-1.0
CCT chaperon mod,1.1,-50.4*,-0.8,-2.4,0.3,-2.6
KCNH2 3.1 inh,1.4,20.0,-87.3*,-117.1*,-160.6*,-71.2*
Rango-impB inh,?,?,0.7%,-0.8%,0.0%,-2.5%
Mm-Cpn inhibitor,?,0.5%,-14.5%,-0.8%,-5.4%,-1.5%
Rango dissoc inh,?,4.61µM*,0.1%,-2.8%,34.6%,16.2%

Taken from above:
Result of #15 under KCNH2 3.1 inh: -87.3*
Result of #17 under KCNH2 3.1 inh: -160.6*
Result of #14 under CCT chaperon mod: -50.4*

Next structures follow:
#19 CCOC(=O)N1CCN(S(=O)(=O)c2cc([N+](=O)[O-])ccc2C)CC1
#20 Cc1ccc(NC(=O)CN(C)C(=O)C(C)OC(=O)CNC(=O)c2ccc(Cl)c([N+](=O)[O-])c2)cc1 (centres undefined)
#21 COc1cc(NC(=O)c2csc(-c3ccncc3)n2)cc(C(=O)Nc2cccc(C(F)(F)F)c2)c1
#22 CC(C)C[C@H]1CNC(=S)N1CC1CCN(CCCCc2ccccc2)CC1
#23 S=C1NC[C@H](Cc2ccccc2)N1CC1CCN(CCCC2CCCC2)CC1
#24 CCCCN1CCC(CN2C(=S)NC[C@@H]2CC(C)C)CC1
Screen / compound no.,19,20,21,22,23,24
hERG WT inh,22.2,-2.0,?,11.8,-39.8,38.8
CCT chaperon mod,0.8,-76.9*,-34.8*!,-11.2,-0.7,-1.1
KCNH2 3.1 inh,8.0,41.8,-117.6*,-71.2*,-87.8*,4.3
Rango-impB inh,0.0%,4.9%,2.6%,0.1%,-1.5%,-0.6%
Mm-Cpn inhibitor,-1.2%,2.4%,-5.1%,nt,nt,nt
Rango dissoc inh,0.8%,5.2%,8.5%,-8.5%,-10.2%,27.3%

In another format: entries from further up
18. CCOC(=O)N1CCC(=NNS(=O)(=O)c2cccc([N+](=O)[O-])c2)CC1
  hERG WT inh = -1.0
  CCT chaperon mod = -2.6
  KCNH2 3.1 inh = -71.2*
  Rango-impB inh = -2.5%
  Mm-Cpn inhibitor = -1.5%
  Rango dissoc inh = 16.2%
19. CCOC(=O)N1CCN(S(=O)(=O)c2cc([N+](=O)[O-])ccc2C)CC1
  hERG WT inh = 22.2
  CCT chaperon mod = 0.8
  KCNH2 3.1 inh = 8.0
  Rango-impB inh = 0.0%
  Mm-Cpn inhibitor = -1.2%
  Rango dissoc inh = 0.8%
20. Cc1ccc(NC(=O)CN(C)C(=O)C(C)OC(=O)CNC(=O)c2ccc(Cl)c([N+](=O)[O-])c2)cc1 (centres undefined)
  hERG WT inh = -2.0
  CCT chaperon mod = -76.9*
  KCNH2 3.1 inh = 41.8
  Rango-impB inh = 4.9%
  Mm-Cpn inhibitor = 2.4%
  Rango dissoc inh = 5.2%

The list continues:
#25 S=C1NC[C@H](Cc2ccccc2)N1CCCCC1CCCCC1
#26 COCc1nn2c(N)c(C#N)cnc2c1-c1ccccc1
#27 COCc1nn2c(N)c(-c3ccccc3)cnc2c1-c1ccccc1
#28 Cc1ccnc2nc(C(=O)OCC(=O)NC(=O)NCc3ccco3)nn12
#29 OC(CSc1ccccc1)CN1CCN(c2ccc(Cl)cc2)CC1 (centres undefined)
#30 OC(CSc1ccccc1)CN1CCN(c2cccc(Cl)c2)CC1 (centres undefined)
Screen / compound no.,25,26,27,28,29,30
hERG WT inh,1.9,0.8,2.1,nt,-31.6,-36.9
CCT chaperon mod,0.6,-0.6,-44.1*,-4.0,-0.7,-3.7
KCNH2 3.1 inh,0.1,-0.4,17.7,-20.6,-86.4*,?
Rango-impB inh,3.9%,-1.4%,3.5%,0.8%,0.9%,3.5%
Mm-Cpn inhibitor,nt,0.3%,-1.9%,0.4%,nt,nt
Rango dissoc inh,4.8%,9.0%,-0.2%,26.2%,-10.3%,1.0%

#31 Cn1c2cc(B(O)O)sc2c2cnn(Cc3c(F)cccc3Cl)c(=O)c21
#32 CC(=C/c1ccccc1)/C=N/Nc1nc(N2CCOCC2)nc(N2CCOCC2)n1
#33 C(=C\c1ccccc1)/C=N/Nc1nc(N2CCOCC2)nc(N2CCOCC2)n1
#34 O=C(CSc1nc2ccccc2c(=O)n1Cc1ccc(F)cc1)NCc1cccs1
#35 COCCNC(=O)CSc1nc2ccccc2c(=O)n1CCCC(=O)NCc1ccccc1
#36 Cc1cccc(OCC(=O)N/N=C/c2cc([N+](=O)[O-])ccc2N2CCOCC2)c1
Screen / compound no.,31,32,33,34,35,36
hERG WT inh,nt,-5.9,1.0,-26.2,8.1,-1.6
CCT chaperon mod,nt,-49.3*,-0.8,1.2,-75.0*,-2.5
KCNH2 3.1 inh,nt,2.1,-8.7,-95.3*,0.3,nt
Rango-impB inh,nt,-0.6%,-1.2%,0.2%,0.8%,-0.1%
Mm-Cpn inhibitor,-1.7%,-0.9%,0.4%,-23.3%,1.4%,0.6%
Rango dissoc inh,nt,0.2%,0.2%,-1.4%,-1.8%,-1.6%

#37 OCC[C@H]1C[C@H](O)[C@@H](O)[C@]2(Cc3ccccc3CCO2)O1
#38 CC(C)(C)c1cc(=O)n(-c2ccccc2)[nH]1
#39 O=C(COC(=O)c1ccncc1)c1ccc(Cl)c(Cl)c1
#40 Cc1oc2nc(SCC(=O)NC3CCCCC3)nc(N)c2c1C
#41 Cc1cc(-c2cc(-c3ccccc3)on2)nc(NC2CCCC2)n1
#42 CC(NC(=O)COC(=O)C1(C)CC1(Cl)Cl)c1ccccc1 (centres undefined)
#43 CN(C(=O)c1cc(S(=O)(=O)N2CCc3ccccc32)cn1C)C1CCCCC1
Screen / compound no.,37,38,39,40,41,42,43
hERG WT inh,-2.7,12.2,-4.8,5.9,0.5,1.7,-7.6
CCT chaperon mod,-1.2,0.0,0.5,2.8,-2.5,-0.4,-0.6
KCNH2 3.1 inh,-7.8,nt,4.1,-1.6,-70.4*,1.8,1.6
Rango-impB inh,-2.4%,46.1µM*,-5.0%,0.4%,4.2%,-2.6%,1.9%
Mm-Cpn inhibitor,-0.8%,?,0.1%,nt,-0.4%,-0.6%,-0.6%
Rango dissoc inh,-0.2%,11.0%,-3.0%,0.1%,-1.2%,4.8%,-2.8%

Bioassay records (PubChem BioAssay)
